The source of these data is patent publication US6894033B2, “Combination therapies using vitamin B12 and therapeutic agents for treatment of viral, proliferative and inflammatory diseases” (Transition Therapeutics Inc., priority 2001, dated 2005).

Read-outs that look alike come from different tables or passages of the source.

Assay [1] concerns EAE mouse model. In words: Clinical signs in the EAE mouse model (SJL mice). It counts as in vivo. As to conditions: vitamin B12 (cyanocobalamin) 10 mg/kg daily, interferon-beta 1a 5000 IU daily.
Assay [2] has as its system GFAP. In words: GFAP in brain of ND4 mice (immunohistochemistry, slot blot of homogenates). The assay is classed as in vivo, mouse. Here is the method:
ND4 mice were treated as described previously in Example 1. After the various treatments, the mice were sacrificed and brain sections removed for GFAP staining and quantitation. The brain region of hippocampus, adjacent to the dentate gyrus was fixed in formalin, paraffin-embedded and sectioned at 5 μm. Immunohistochemistry with anti-GFAP antibody was used to stain for GFAP. Glial fibrillary acidic protein was a protein expressed by astrocytes (particularly reactive astrocytes) and was used as a marker for these cells.
(§1) In addition, quantification of GFAP within the brains of normal, ND4 untreated and ND4 treated mice was carried out to provide a more precise level of protein expression. Whole brain homogenates were assayed for GFAP by slot blot. Brains were homogenized in a buffer containing 50 mM Tris-HCl pH 7.6, 0.5 mM DTT, 1 mM EDTA, and 0.43 mM PMSF. The homogenate was centrifuged at 11000 rpm for 30 min at 4° C. The pellet was isolated and resuspended in a buffer containing 10 mM sodium phosphate pH 7.5, 2 mM DTT, 6 mM urea and 1 mM EDTA. Samples were loaded onto the slot blot apparatus (BioDot, Biorad) under vacuum. The blots were reacted with anti-GFAP antibodies and then a secondary antibody. The blots were developed and the relative amounts of each band quantified.

For assay [3], the system named is GFAP. In words: GFAP in brain of EAE mice (immunohistochemistry, slot blot of homogenates). The assay is classed as in vivo, mouse. Here is the method: EAE mice were treated as described previously in Example 2. After the various treatments, the mice were sacrificed and brain sections removed for GFAP staining and quantitation. The brain region of hippocampus, adjacent to the dentate gyrus was fixed in formalin, paraffin-embedded and sectioned at 5 μm. Immunohistochemistry with anti-GFAP antibody was used to stain for GFAP. Glial fibrillary acidic protein was a protein expressed by astrocytes (particularly reactive astrocytes) and was used as a marker for these cells.
as §1, with “EAE” for “ND4”

Assay [4] concerns Human Hepatitis B Virus (HBV). In words: HBV DNA copies in HepG2.2.15 culture medium by Lightcycler real-time PCR. The following applies: for Antiviral effect on HBV (HBV DNA copies): HepG2.2.15, 9 days, fraction. It counts as cell-based. Here is the method: HepG2.2.15 cells, a cell line that was stably transfected with HBV genome, were cultured in RPMI-1640 with fetal bovine serum at either 2 or 4% final concentration and with no antibiotics. […] The medium was then discarded and replaced with 100 μl of culture medium containing hydroxocobalamin (a form of vitamin B12) alone (at various concentrations), interferon-beta alone (at various international units), and a mixture of varying doses of hydroxocobalamin (HC) and various doses of interferon-beta vs. HC. Triplicate samples were measured for each concentration. The cells were incubated at 37° C. for 9 days. Drug/medium was changed daily. On day 9, the culture media containing released HBV virions were harvested and used to extract HBV DNA.
HBV DNA from drug-treated HepG2.2.15 cell culture media was extracted using QIAmp DNA mini kit—blood and body fluid spin column according to manufacturer's instructions. Briefly, 10 μl of QIAGEN proteinase K was added to 1.5 ml Eppendorf tube. 50 μl cell supernatant and 50 μl AL buffer were added to the tube. The samples were incubated at 56° C. water bath for 3 h. At the end of incubation, 50 μl ethanol was added to the sample. The mixture was transferred to a QIAamp spin column and centrifuged at 14000 rpm for 1 min. The filtrate was discarded. 50 μl Buffer AW1 was then added to the column and centrifuged at 14000 rpm for 1 min. Following washing and recentrifugation, DNA was eluted in 50 μl dH2O.
HBV DNA was detected by real-time PCR using Lightcycler assay. The reaction was performed in 20 μl, comprising the following: 6.4/4.8 μl dH2O, 2 μl 25 mM MgCl2, 1 μl 10 μM sense primer, 1 μl 10 μM antisense primer, 8/1.6 μl LightCycler Probe (fluorescein-labeled, 5 μM), 0.8/1.6 μl LightCycler Probe 2 (LC Red 640-labeled, 10 μM), 2 μl LC FastStart DNA Master Hyb Probes, 1 μl uracil DNA glycosylase.
PCR mix was aliquoted into glass capillaries and 5 μl DNA template was then added to the PCR mix. A range of HBV plasmid DNA (1×10^8, 1×10^7, 1×10^6, . . . , 1×10^2, 25 copies) was used as standards for quantitative analysis.
The antiviral effects of the test compounds were calculated using DNA copy numbers as an endpoint. Specifically, the antiviral activities were calculated based on the following formula: Antiviral effect=(Ccontrol−Ctest)/Ccontrol whereby the Ccontrol is the HBV DNA copies in the control wells (without drug); the Ctest is the HBV DNA copies in the test wells with a given concentration of a test compound.
The enhancing or antagonistic effect was analyzed mathematically using the median effect equation (Chou and Talalay, 1984) by computer software CalcuSyn (Biosoft, St. Louis). The range of the combination index (CI) is illustrated below in Table 6.

The subject of assay [5] is Herpes Simplex Virus Type 2 (HSV-2). In words: CPE inhibition assay in MRC-5 cells, HSV-2. The following applies: fraction. It counts as cell-based.
The test system of assay [6] is Vesticular Stomatitis Virus (VSV). The assay is classed as cell-based. The following applies: MRC-5; for Antiviral effect on VSV (CPE inhibition): fraction.
In assay [7] the test system is ND4 mouse model. In words: Clinical signs in the ND4 demyelinating transgenic mouse model. It counts as in vivo. Here is the method: In this model, the severity of the clinical signs increased until a maximum around 6 months with animals dying around 8 to 9 months of age. Clinical signs assessed included general shaking, seizures, head jerk, hind limb and tail shiver, wobbly gait and limp tail. The scale of zero (absence) to four (constant and uncontrollable movements) was used for each of the clinical signs.
Mice (4 animals per group) were treated with vitamin B12 (cyanocobalamin) alone at a dose of 15 mg/kg; weekly and in combination with interferon-beta 1a (REBIF®). Interferon-beta 1a was administered alone and in combination with vitamin B12 at a dose of interferon-beta 1a of 5000 IU, tri-weekly. […]
ND4 mice were either (a) untreated or treated with (b) interferon-beta 1a (REBIF®) alone (5000 IU) or (c) 1000 IU of interferon-beta 1a and B12 (15 mg/kg), or (d) 2500 units of interferon-beta 1a and B12 (15 mg/kg) or (e) 5000 IU of interferon-beta 1a and B12 (15 mg/kg), three times a week for the duration of the experiment. […] The animals were evaluated twice a week for clinical signs and the scores were averaged on a weekly basis. […]
The severity of the clinical signs increase until a maximum around 6 months with animals dying around 8 to 9 months of age. Clinical signs assessed include general shaking, seizures, head jerk, hind limb and tail shiver, wobbly gait and limp tail. […]

B1: interferon-beta: interferon-beta 1a (REBIF) in the animal examples; interferon-beta of unstated type in Examples 8-9 (protein, UniProt P01574 22-187, looked up)
Interferon beta: MSYNLLGFLQRSSNFQCQKLLWQLNGRLEYCLKDRMNFDIPEEIKQLQQFQKEDAALTIYEMLQNIFAIFRQDSSSTGWNETIVENLLANVYHQINHLKTVLEEKLEKEDFTRGKLMSSLHLKRYYGRILHYLKAKEYSHCAWTIVRVEILRNFYFINRLTGYLRN
Turning to B1, in assay [1], the “clinical signs of the inflammatory disease (FIG. 2)” value is “attenuation of clinical signs”. In addition, the “Relative Amount of GFAP (+/−SD)” value in assay [2] (ND4 brain homogenates, interferon-beta 5000 IU/ml, Normal 1.0, untreated ND4 4.4) is recorded as 3.1 +/− 0.1; in assay [3] (EAE brain homogenates, interferon-beta 5000 IU/ml, Normal 1.0, untreated EAE 4.2) it was 2.0 +/− 0.5. Besides, the “GFAP staining, activated astrocytes and levels of GFAP (FIG. 4)” value in assay [2] (ND4 mice treated as in Example 1) was “decreased”. Besides, the “reduction of the amounts of GFAP” value in assay [3] (EAE mice treated as in Example 2) is reported as roughly 50%. Moreover, the “viral activity (HBV)” value in assay [4] (HepG2.2.15, vitamin B12 = hydroxocobalamin (HC)) was “decreased”. The “Antiviral effect on HBV (HBV DNA copies)” value turned out to be 0.569 in assay [4] (interferon-beta 50 IU/ml), 0.746 in assay [4] (interferon-beta 100 IU/ml), 0.773 in assay [4] (interferon-beta 500 IU/ml) and 0.823 in assay [4] (interferon-beta 1000 IU/ml). Besides, the “Antiviral effect on HSV-2 (CPE inhibition)” value in assay [5] (interferon 5 IU/ml) is 0.164; in assay [5] (interferon 10 IU/ml), 0.136; in assay [5] (interferon 50 IU/ml), 0.314; in assay [5] (interferon 100 IU/ml), 0.281; in assay [5] (interferon 500 IU/ml), 0.265. The “Anti-viral activity (protection of CPE) / viral activity, VSV” value in assay [6] (vitamin B12 = hydroxocobalamin (HC)) is recorded as “significantly increased”. For the same molecule, the “Antiviral effect on VSV (CPE inhibition)” value in assay [6] (interferon 5 IU/ml) is on record as 0.826; in assay [6] (interferon 10 IU/ml), 0.985; in assay [6] (interferon 50 IU/ml) it was 0.758; in assay [6] (interferon 100 IU/ml) it was 0.768; in assay [6] (interferon 500 IU/ml), 0.956. In addition, the “clinical signs of MS (FIG. 1)” value in assay [7] (ND4 mice, vitamin B12 (cyanocobalamin) 15 mg/kg weekly, interferon-beta 1a 5000 IU tri-weekly, from 3 months of age) is recorded as “attenuation of clinical signs”. Besides, in assay [7] (ND4 mouse at six months, interferon-beta 5000 IU alone, three times a week), the “Sum of Clinical Scores (+/−SD)” value is 21 +/− 4.
